Take `CC(C)OP(=S)(OC(C)C)SCCNS(=O)(=O)c1ccccc1`: the logP (as a rule, a log measure of how a compound divides between an organic and an aqueous phase) amounted to 4.2.

Values taken from the OPERA property sets (Mansouri et al. 2018).
